This experiment addresses human PDE6D (Homo sapiens, UniProt O43924).

Molecules are shown by their SMILES.

Usually Kd stands for the constant that tells how readily two partners part at equilibrium. The compound `c1ccc(CSc2nc(-c3ccccc3)c(-c3ccccc3)[nH]2)cc1` yielded a Kd of 900 nM. Next, `CC(C)c1c(C(=O)Nc2ccccc2)c(-c2ccccc2)c(-c2ccc(F)cc2)n1CCOCCOCCOCCOCCOCCOCCOCCN`: 615 nM.

The values above are taken from patent US7323490B2.
